Biological target: T1, TNF-alpha (Homo sapiens, UniProt P01375)
T1 construct: Construct 2 consisted of a His-tag, a spacer, TEV cleavage site and the soluble form of TNF-alpha; His-tag (hexahistidine) (N, cleaved yes); spacer GSGGSG (N, cleaved yes); TEV cleavage site (ENLYFQG) (N, cleaved yes); made in house; host or cells: cell-free expression (RTS 100 HY Cell Free Expression kit, 5 Prime), then cleavage with HaloTEV
Experiment: Testing of antibody fragment binding on beads (anti-TNF-alpha-FITC, epifluorescence microscopy)
Conditions: beads treated with cleaved TNF-alpha supernatant 1 hour, detected with anti-TNF-alpha-FITC antibody
Procedure: Equipment: • Epifluorescence microscope with camera (Zeiss Axioskop)
Reagents and supplies: • Wash buffer (PBS+20 mM Imidazole+0.05% Tween20) • anti-TNF-alpha-FITC antibody (Abcam, ab65099) • Microscope slides (Fisher Scientific) • Cover slips (CapitolBrand M3453-2222, 22 mm Length, 22 mm Width, #1 Thick) • Protein and DNA loaded bi-functional beads (scFv and control) • cleaved TNF-alpha supernatant
1. Beads with expressed scFv or control protein were treated with the cleaved TNF-alpha supernatant for 1 hour.
2. Beads were washed twice with wash buffer
3. Beads were incubated for 1 hour in wash buffer containing 1 mg anti-TNF-alpha-FITC antibody
4. Beads from the scFv and control samples were dispensed separately onto microscope slides and covered with cover slips.
5. Photomicrographs were captured using an epifluorescence microscope with an attached camera.
6. The photomicrographs were analyzed using CellProfiler software to determine the integrated fluorescence intensity of each bead detected.

Amino acid sequences for entries named in this document (tags omitted). Chains listed by the source or under a name are the forms on record and can include a tag or linker.
UniProt P01375, with tags, fused parts or gaps: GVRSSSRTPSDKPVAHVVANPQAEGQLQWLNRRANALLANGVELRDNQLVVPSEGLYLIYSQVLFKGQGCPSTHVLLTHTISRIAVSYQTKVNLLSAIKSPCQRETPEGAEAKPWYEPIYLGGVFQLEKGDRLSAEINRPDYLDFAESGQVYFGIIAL

B1: scFv: His-tag, spacer, TEV site, spacer, single-chain antibody fragment with variable sequence known to bind TNF-alpha, SEQ ID NO: 12 (protein)
scFv: MHHHHHHGSGGSGENLYFQGGSGGSGDIQMTQSPSSLSASVGDRVTITCKASQNVGTNVAWYQQKPGKAPKALIYSASFLYSGVPYRFSGSGSGTDFTLTISSLQPEDFATYYCQQYNIYPLTFGQGTKVEIKGGGGSGGGGSGGGGSGGGGSEVQLVESGGGLVQPGGSLRLSCAASGYVFTDYGMNWVRQAPGKGLEWMGWINTYIGEPIYADSVKGRFTFSLDTSKSTAYLQMNSLRAEDTAVYYCARGYRSYAMDYWQQGTLVTVSS
  Binding of bead-expressed protein to TNF-alpha (bead fluorescence intensity): binds to TNF-alpha

— US9701959B2, “High throughput screen for biologically active polypeptides” (Invenra Inc., priority 2012, dated 2017)
